Earlier results in patent publication US20170037111A1, “Novel peptides and combination of peptides for use in immunotherapy against ovarian cancer and other cancers” (immatics biotechnologies GmbH, priority 2015, published 2017).

Test system: ovarian cancer
Details: clinical studies, phase as stated; cited from earlier work

## trastuzumab: anti-HER2/neu antibody
  clinical effect in ovarian cancer patients: limited clinical benefit
